Experimental data from patent US20120171201A1.

Tests used:
[1] = test system: human gastric carcinoma N87; assay: Therapeutic efficacy in human N87 gastric carcinoma xenografted mice; details: Herceptin 20 mg/kg/dose q7d i.p.
HER2 positive cancer = details: patients with aggressive HER2 positive cancer; cited from earlier work

In the case of “Herceptin®: recombinant humanized monoclonal antibody directed against the human epidermal growth factor receptor 2 (HER2)”, the “gastric tumor growth inhibition” value ([1]; compound 9 5 mg/kg/dose q2d×5 i.v., FIG. 5) is listed as “did not inhibit gastric tumor growth”, the “tumor volume increased compared to day 0” value ([1]; day 40) is listed as 613% and the “reduced risk of a relapse” value (HER2 positive cancer) is listed as “by more than half”.
